Key:
[1] = tested on: mIMCD3 cells expressing a polycystin 1 missense protein; assay: Recovery assay of primary ciliary localization of polycystin 1 missense protein; conditions: mutant mIMCD3 cells (C210G), 37°C, 4 hours
Method: Using mouse kidney collecting duct-derived cells (mIMCD3 cells: ATCC Cat. No. CRL-2123) expressing a polycystin 1 missense protein (a mutation in which cysteine at position 210 in the amino acid sequence of SEQ ID NO: 1 is substituted with glycine), it was examined whether the compound C has an activity to restore localization of polycystin 1 to primary cilia.
The above mutant mIMCD3 cells were treated with the compound C at 37°C for 4 hours, followed by multiplex staining with anti-polycystin 1 antibodies (Santa Cruz Biotechnology Inc.), anti-acetylated tubulin antibodies (Merck KGaA) as a primary cilium marker, and anti-FGFR10P antibodies (Proteintech Group, Inc.) as a centrosome marker. The results of observation of cholesterol in primary cilia using a confocal laser microscope and the results of measurement of fluorescence intensity of polycystin 1 protein in primary cilia are shown in FIGS. 6A and 6B. As a control, mIMCD3 cells without mutations were used (Wild type).

[2] = tested on: VAP-A-deficient hTERT-RPE1 cells; assay: Primary ciliary cholesterol delivery activity assay (Filipin III staining), VAP-A-deficient hTERT-RPE1 cells; conditions: VAP-A-deficient hTERT-RPE1 cells (VAPA-/-), 37°C, 4 hours
Method: Among the hit compounds obtained in Example 1, 10 compounds (compounds A, C, D, I, R, V, AB, AF, AL, and AP) were evaluated for their ability to increase cholesterol in primary cilia. hTERT-immortalized human retinal pigment epithelial cells (hTERT-RPE1 cells: ATCC CRL-4000) were treated with the hit compounds at 37°C for 4 hours, followed by multiplex staining with the cholesterol probe Filipin III (Merck KGaA), anti-acetylated tubulin antibodies (Merck KGaA) as a primary cilium marker, and anti-pericentrin antibodies (Bethyl Laboratories, Inc.) as a centrosome marker. The results of observation of cholesterol in primary cilia using a confocal laser microscope and the results of measurement of Filipin III fluorescence intensity in primary cilia are shown in FIG. 2A to FIG. 4B. In addition, the same analysis was performed using VAP-A-deficient hTERT-RPE1 cells generated by deleting the VAP-A gene using the CRISPR-ObLiGaRe method established by Royba, Miyamoto et al. (Sci Rep 2017). In the drawings, VAPA+/+ indicates hTERT-RPE1 cells, and VAPA-/- indicates VAP-A-deficient hTERT-RPE1 cells.

PC2 mutant mIMCD3 cells = assay: Tubule diameter enlargement inhibitory assay in 3D cyst culture system, PC2 mutant cells
Method: (§1) Using mutant mIMCD3 cells expressing a polycystin 1 missense protein or mutant mIMCD3 cells expressing a polycystin 2 missense protein, it was examined whether each compound has an activity of suppressing cyst enlargement. The mutation in the polycystin 1 protein or polycystin 2 protein reduces primary ciliary activity and results in cyst enlargement.
Three-dimensional cultures of the mutant mIMCD3 cells were prepared in accordance with the method described by Rachel H. Giles et al. (Nature Protocols, volume 9, pages 2725-2731 (2014)). In mIMCD3 cells (mIMCD3 cells: ATCC Cat. No. CRL-2123), PC1 mutant mouse kidney collecting duct-derived cells (PC1 mutant mIMCD3 cells) expressing a polycystin 1 missense protein (a mutation in which cysteine at position 210 in the amino acid sequence of SEQ ID NO: 1 is substituted with glycine), or PC2 mutant mIMCD3 cells expressing a polycystin 2 missense protein (a mutation in which tryptophan at position 412 in the amino acid sequence of SEQ ID NO: 2 (corresponding to position 414 in a human polycystin 2 missense protein) is substituted with glycine) were prepared. Each of the mutant mIMCD3 cells was suspended in DMEM/F-12 (L-glutamine) medium supplemented with 10% (vol/vol) FBS and 1% (vol/vol) penicillin-streptomycin, mixed with the compound A, C, R, or V at 20 µM or cholesterol at 200 µM, and Matrigel, and then transferred to an 8-well chamber slide plate. The mixture was incubated at 37°C under 5% CO2 conditions until solidification (15 to 30 minutes). Thereafter, pre-warmed medium was added to the solidified cell-Matrigel layer, and the cells were incubated at 37°C under 5% CO2 conditions with medium replacement until cyst formation.
(§2) The cysts thus formed were fixed, and sections were prepared. Subsequently, F-actin was stained with phalloidin, and DNA was stained with DAPI, followed by imaging using a fluorescence microscope. Further, in the merged images of the formed cysts, the size of the epithelial lumen formed inside the cyst was defined as the inner diameter, and the overall size of the cyst was defined as the outer diameter, and an inner diameter/outer diameter ratio was calculated. In FIG. 7A, the dotted line in the merged image indicates the width of the inner diameter.
Using the PC2 mutant mIMCD3 cells, the compounds A, G, and R, as well as the existing drug tolvaptan, were each added at three concentrations of 3.75 µM, 7.5 µM, and 15 µM, and it was examined, in the same manner as in Example 4, whether each compound has an activity of suppressing enlargement of cyst tubule diameter.
Further, using the PC2 mutant mIMCD3 cells, the compound A, the compound G, and the compound G-OH, which is a derivative of the compound G, were each added at 20 µM, and it was examined, in the same manner as in Example 4, whether each compound has an activity of suppressing enlargement of cyst tubule diameter.
In Example 4, the compounds A, C, and R were used. Additionally, the compounds B, Q, K, J, and I were evaluated in the same manner for their inhibitory effects on tubule diameter enlargement. The above PC2 mutant mIMCD3 cells were used as cells, and the compounds A, G, B, Q, K, J, and I were used as compounds. The compounds A, G, B, Q, K, and J were each used at 20 µM, while the compound I was used at four concentrations of 2.5 µM, 5 µM, 10 µM, and 20 µM. In the same manner as in Example 4, images were obtained using a fluorescence microscope, and the inner diameter/outer diameter ratio was determined. The results for the compounds A, G, B, Q, K, and J are shown in FIGS. 10A and 10B, and the results for the compounds A and I are shown in FIGS. 11A and 11B.

PC1 mutant mIMCD3 cells = assay: Tubule diameter enlargement inhibitory assay in 3D cyst culture system, PC1 mutant cells; conditions: 20 µM, cholesterol comparator 200 µM
Method: as §1
Three-dimensional cultures of the mutant mIMCD3 cells were prepared in accordance with the method described by Rachel H. Giles et al. (Nature Protocols, volume 9, pages 2725-2731 (2014)). […]
as §2, with “In FIG. 7A, the dotted line in the merged image indicates the width of the inner diameter.” left out

CRFK cells = assay: PC1 increasing activity assay in primary cilia of CRFK cells; conditions: 20 µM, 37°C, 8, 16 or 24 hours
Method: The effect of the compound G on increasing PC1 in primary cilia was evaluated. CRFK cells, which are a feline kidney-derived epithelial cell line, were prepared, and after treatment with the compound G (final concentration of 20 µM) at 37°C for 8, 16, or 24 hours, multiplex staining was performed with anti-polycystin 1 antibodies (Santa Cruz Biotechnology Inc.), anti-acetylated tubulin antibodies (Merck KGaA) as a primary cilium marker, and anti-FGFR1OP antibodies (Proteintech Group, Inc.) as a centrosome marker. The results of observation of PC1 in primary cilia using a confocal laser microscope and the results of measurement of fluorescence intensity of PC1 in primary cilia are shown in FIGS. 13A and 13B.

[3] = tested on: induced pluripotent stem cells derived from patients with autosomal dominant polycystic kidney disease (HPS2192 cells, HPS2636 cells); assay: Recovery assay of primary ciliary localization of polycystin 2 protein in patient-derived iPS cells; conditions: 37°C, 24 hours
Method: Using induced pluripotent stem cells derived from patients with autosomal dominant polycystic kidney disease (HPS2192 cells: RIKEN BRC RRID: CVCL_YS47 and HPS2636 cells: RIKEN BRC RRID: CVCL_YS58; RIKEN BioResource Research Center), it was examined whether the compound G-OH at 5 µM, 10 µM, and 20 µM, or the existing drug tolvaptan at 20 µM, has an activity of restoring localization of polycystin 2 protein to primary cilia.
The above human induced pluripotent stem cells were treated with the compound G-OH or tolvaptan at 37°C for 24 hours, followed by multiplex staining with anti-polycystin 2 antibodies (Santa Cruz Biotechnology Inc.), anti-ARL13B antibodies (Santa Cruz Biotechnology Inc.) as a primary cilium marker, and anti-FGFR1OP antibodies (Proteintech Group, Inc.) as a centrosome marker. The results of observation of polycystin 2 in primary cilia using a confocal laser microscope and the results of quantification of polycystin 2 levels in primary cilia by immunostaining are shown in FIGS. 12A and 12B. As a control, induced pluripotent stem cells derived from a healthy individual (HPS1006 cells: RIKEN BRC RRID: CVCL_UP39; RIKEN BioResource Research Center) were used (wild-type).

[4] = 3.75 µM, 7.5 µM and 15 µM, compared with tolvaptan

O=C1C2C3C=CC(C3)C2C(=O)N1Cc1ccccc1 (stereo not shown)
localization of polycystin 1 to the primary cilia (fluorescence intensity of polycystin 1) [1]: has an activity to restore localization of polycystin 1 to the primary cilia
cholesterol in the primary cilia (Filipin III fluorescence intensity) [2]: not observed
inner diameter/outer diameter ratio of cysts (PC2 mutant mIMCD3 cells; 20 µM): reduced the inner diameter/outer diameter ratio to a level comparable to a level similar to that observed with cholesterol treatment
inner diameter/outer diameter ratio of cysts (PC1 mutant mIMCD3 cells): reduced the inner diameter/outer diameter ratio to a level comparable to a level similar to that observed with cholesterol treatment

COCCCNc1ncnc2c1cnn2-c1ccc(C)cc1C
PC1 in primary cilia (fluorescence intensity) (CRFK cells): has an activity of increasing PC1 in primary cilia
inner diameter/outer diameter ratio of cysts (PC2 mutant mIMCD3 cells; [4]): activity of suppressing cyst size to a level comparable to that of tolvaptan
inner diameter/outer diameter ratio of cysts (PC2 mutant mIMCD3 cells; 20 µM): has an activity of suppressing cyst size

Cc1ccccc1C(=O)Nc1ccc(C(=O)N2CCCC(O)c3cc(Cl)ccc32)c(C)c1 (stereo not shown)
amount of polycystin 2 in primary cilia ([3]; 20 µM): did not show activity

O=C(Nc1ccc(Br)cc1)c1cc(S(=O)(=O)NC2CCCCC2)ccc1Cl
inner diameter/outer diameter ratio of cysts (PC2 mutant mIMCD3 cells; 20 µM): activity of suppressing cyst size at a level comparable to that of the compound A

COc1ccc(-n2ncc3c(Nc4cc(C)cc(C)c4)ncnc32)cc1
inner diameter/outer diameter ratio of cysts (PC2 mutant mIMCD3 cells; 20 µM): activity of suppressing cyst size at a level comparable to that of the compound G

Cc1cccc(-n2ncc3c(NCc4ccc(F)cc4)ncnc32)c1
inner diameter/outer diameter ratio of cysts (PC2 mutant mIMCD3 cells; 20 µM): activity of suppressing cyst size at a level comparable to that of the compound G

Cc1ccc(-n2ncc3c(NCCCO)ncnc32)c(C)c1
amount of polycystin 2 in primary cilia ([3]; 5 µM, 10 µM and 20 µM): increased in a dose-dependent manner
restoring localization of polycystin 2 to primary cilia ([3]; patient-derived iPS cells): has an activity of restoring localization of polycystin 2 to primary cilia
inner diameter/outer diameter ratio of cysts (PC2 mutant mIMCD3 cells; 20 µM): has an activity of suppressing cyst size

COc1ccccc1CNS(=O)(=O)c1ccc(F)c(C(=O)Nc2cc(C)cc(C)c2)c1
cholesterol in the primary cilia (Filipin III fluorescence intensity) [2]: not observed
inner diameter/outer diameter ratio of cysts (PC2 mutant mIMCD3 cells; 10 µM and 20 µM (tested at 2.5, 5, 10, 20 µM)): activity of suppressing cyst size at a level comparable to that of the compound A

Cc1ccc(-c2csc(NC(=O)c3ccc([N+](=O)[O-])cc3)n2)cc1C
inner diameter/outer diameter ratio of cysts (PC2 mutant mIMCD3 cells; [4]): activity of suppressing cyst size greater than that of tolvaptan
inner diameter/outer diameter ratio of cysts (PC2 mutant mIMCD3 cells; 20 µM): reduced the inner diameter/outer diameter ratio to a level comparable to a level similar to that observed with cholesterol treatment
inner diameter/outer diameter ratio of cysts (PC1 mutant mIMCD3 cells): reduced the inner diameter/outer diameter ratio to a level comparable to a level similar to that observed with cholesterol treatment
